Source: patent publication US6573044B1, “Methods of using chemical libraries to search for new kinase inhibitors” (The Regents of the University of California, priority 1997, dated 2003)

Tests used:
[1] = target: CDK2/cyclin E (Homo sapiens, UniProt P24941); experiment: CDK2/cyclin E kinase inhibition; type: biochemical; details: Table 2, purified kinase
[2] = target: CDK2/cyclin A (Homo sapiens, UniProt P24941); experiment: CDK2/cyclinA microtiter histone H1 phosphorylation assay; details: read-out: IC50 cdk2/cyclin A; Table 2, purified kinase

Substance: 2-(1R-isopropyl-2-hydroxyethyl)-6-(3-chloroanilino)-9-isopropylpurine [Purvalanol A]
- IC50 [1]: 35 nM
- IC50 [2]: 70 nM
